# Earlier results, collected in patent US10650914B2, “Fresh water acute criteria prediction method based on quantitative structure-activity relationship for metals” (Chinese Research Academy of Environmental Sciences, priority 2015, dated 2020).
# Assays:
# Carp = settings: training set
# aquatic organisms = settings: U.S. EPA guideline 1985, laboratory determination
substance,measurement,setting,value
Mercury,Endpoint Index,"Daphnia magna; fatality rate, 48 hours, 13° C., pH 7.6, total hardness 240 mg/L",0.022
same,Endpoint,"Daphnia magna; fatality rate, 48 hours, endpoint index divided by molecular weight",-0.9608 µmol/L
same,Observed value (log-EC50),Daphnia magna; training set of leave-one-out internal validation,−0.9608
same,Observed value (log-LC50),Carp,−0.0479
same,hazard concentration,aquatic organisms,−1.8560
